# Apparent affinities of Ab-14 variants for a coronavirus HR2 peptide

Values reported by Engelhart et al. 2022, doi:10.1038/s41597-022-01779-4 (FLAb copy).

All variants were tested on one target, the spike HR2 peptide PDVDLGDISGINAS (SARS-CoV-2).

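The starting antibody came from a phage panning campaign against this peptide. AAYL49 was designed without a model: most single CDR substitutions and a random sample of double and triple ones. Affinity was read by AlphaSeq, a pooled yeast mating assay with surface-displayed partners. Pairs that bind mate more often; barcode pairs of the diploids are counted by sequencing. Each replicate has its own calibration line, from reference interactions of the BCL2 family. Each pool was mated in three replicate cultures.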

Parent scFv Ab-14: VH joined to VL by the linker GGGGSGGGGSGGGGS. Changes lie in the heavy chain CDRs alone.
VH: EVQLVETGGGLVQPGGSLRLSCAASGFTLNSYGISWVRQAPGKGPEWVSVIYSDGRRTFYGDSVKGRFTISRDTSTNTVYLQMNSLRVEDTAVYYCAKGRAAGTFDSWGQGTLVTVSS
VL: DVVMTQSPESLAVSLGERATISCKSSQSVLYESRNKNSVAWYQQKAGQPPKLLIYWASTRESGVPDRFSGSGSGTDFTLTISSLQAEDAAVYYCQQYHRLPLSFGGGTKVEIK

Each variant's VH is given in full.
Numbers give log10(Kd / nM), so 0 is 1 nM and 3 is 1 µM. Smaller is tighter.
Averages over replicates are reported, and they cover detected replicates only.
"nd" marks a missing value. The strain was present, yet no cells mated with the target were sequenced in any replicate, which points to weak or no binding.
Parent in this assay: reference entry 0.65, copy in this library 4.11 (one replicate of three).
Three control strains display no target. For library AAYL49, 15% of the pairings with them gave a signal, with a median of 4.06 and one signal in twenty below 2.83, so weak values seen in few replicates may be background.

The variant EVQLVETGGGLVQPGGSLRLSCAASGFTLKSPGISWVRQAPGKGPEWVSVIYSDGRRTRYGDSVKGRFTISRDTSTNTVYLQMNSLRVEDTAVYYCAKGRAAGTFDSWGQGTLVTVSS showed nd (0 of 3 replicates).
The variant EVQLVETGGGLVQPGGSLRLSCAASGFTLNSYGISWVRQAPGKGPEWVSVIYSDVPRTFYPDSVKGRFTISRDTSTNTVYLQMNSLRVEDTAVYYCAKGRAAGTFDSWGQGTLVTVSS showed 3.18 (1 of 3 replicates).
The variant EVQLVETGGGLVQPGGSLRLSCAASGFTLNSYGISWVRQAPGKGPEWVSVIYSDGRRTFDGMSVKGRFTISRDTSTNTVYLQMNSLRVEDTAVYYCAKGRAAGTFDSWGQGTLVTVSS showed nd (0 of 3 replicates).
The variant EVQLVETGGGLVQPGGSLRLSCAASGATLNSYGISWVRQAPGKGPEWVSVFYSDGRRTFYRDSVKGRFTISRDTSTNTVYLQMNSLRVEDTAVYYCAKGRAAGTFDSWGQGTLVTVSS showed nd (0 of 3 replicates).
The variant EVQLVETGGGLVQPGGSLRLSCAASGFTLNNYGISWVRQAPGKGPEWVSVIYSDGRRFFYGDSVGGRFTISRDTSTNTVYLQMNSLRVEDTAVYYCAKGRAAGTFDSWGQGTLVTVSS showed 3.98 (2 of 3 replicates).
The variant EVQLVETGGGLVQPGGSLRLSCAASGFTLNQYHISWVRQAPGKGPEWVSVIYSNGRRTFYGDSVKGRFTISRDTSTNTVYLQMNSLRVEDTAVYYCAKGRAAGTFDSWGQGTLVTVSS showed nd (0 of 3 replicates).
The variant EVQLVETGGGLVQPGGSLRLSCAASGFTLNSEGISWVRQAPGKGPEWVSVIYSDGRRTFVGDSVKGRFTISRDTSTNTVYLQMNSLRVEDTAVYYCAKGRAATTFDSWGQGTLVTVSS showed nd (0 of 3 replicates).
The variant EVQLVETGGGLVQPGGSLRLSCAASGFPLNSYGISWVRQAPGKGPEWVSVIYSDGRRTFYGDSVKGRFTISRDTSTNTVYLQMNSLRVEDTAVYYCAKGRAAGTNDSWGQGTLVTVSS showed nd (0 of 3 replicates).
The variant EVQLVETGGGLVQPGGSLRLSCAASGFTLNSYGISWVRQAPGKGPEWVSVIWSDGRRTFYGDSVKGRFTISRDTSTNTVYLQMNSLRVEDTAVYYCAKGRAAGTFGSWGQGTLVTVSS showed 5.83 (2 of 3 replicates).
The variant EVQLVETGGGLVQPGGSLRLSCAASAFTLNSYGISWVRQAPGKGPEWVSVIYSDGRRTFYGDSVSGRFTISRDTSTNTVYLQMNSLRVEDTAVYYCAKGRAAGTFDEWGQGTLVTVSS showed 2.18 (3 of 3 replicates).
The variant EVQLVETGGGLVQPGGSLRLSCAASGFTLNSYGISWVRQAPGKGPEWVSVRYSMGRRTFYGDSVKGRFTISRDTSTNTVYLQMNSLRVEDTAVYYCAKGRAAGTHDSWGQGTLVTVSS showed nd (0 of 3 replicates).
The variant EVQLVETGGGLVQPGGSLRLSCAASGFTLNSYGWSWVRQAPGKGPEWVSVIFSDGRRTFYGDSVKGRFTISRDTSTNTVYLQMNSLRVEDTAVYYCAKGRAAGTFDSWGQGTLVTVSS showed 5.17 (1 of 3 replicates).
The variant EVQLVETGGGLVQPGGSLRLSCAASGFTLNPYGISWVRQAPGKGPEWVSVIYSDGRRVRYGDSVKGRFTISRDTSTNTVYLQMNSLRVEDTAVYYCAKGRAAGTFDSWGQGTLVTVSS showed 2.78 (3 of 3 replicates).
The variant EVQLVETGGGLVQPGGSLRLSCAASGFTLNSYGIMWVRQAPGKGPEWVSVIYSDGFRTFYGDSVKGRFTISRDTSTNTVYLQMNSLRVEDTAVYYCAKGRAAGYFDSWGQGTLVTVSS showed 5.86 (1 of 3 replicates).
The variant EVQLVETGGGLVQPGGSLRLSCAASCFTLNSYGISWVRQAPGKGPEWVSVIHSDGRRTFYGDQVKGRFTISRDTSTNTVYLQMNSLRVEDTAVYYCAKGRAAGTFDSWGQGTLVTVSS showed nd (0 of 3 replicates).
The variant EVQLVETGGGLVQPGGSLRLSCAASGFTLNSYGISWVRQAPGKGPEWVSKIYSDGRRTFYGDSVKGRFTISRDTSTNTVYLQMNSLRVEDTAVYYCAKGRAAGTFDVWGQGTLVTVSS showed nd (0 of 3 replicates).
The variant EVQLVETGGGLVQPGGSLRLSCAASGFTLYSYNISWVRQAPGKGPEWVSVIYSDGRRTEYGDSVKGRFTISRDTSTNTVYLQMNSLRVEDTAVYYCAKGRAAGTFDSWGQGTLVTVSS showed nd (0 of 3 replicates).
The variant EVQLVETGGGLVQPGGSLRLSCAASAFTLNSYGISWVRQAPGKGPEWVSVIYSDGRRTFYGDVVKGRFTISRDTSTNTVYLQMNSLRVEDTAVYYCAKGRAAGTFDSWGQGTLVTVSS showed 3.38 (3 of 3 replicates).

Picked from the list: the 2 lowest averages where every replicate gave a value.

VH,"mean, log10 nM",detected
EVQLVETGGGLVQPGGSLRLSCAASAFTLNSYGISWVRQAPGKGPEWVSVIYSDGRRTFYGDSVSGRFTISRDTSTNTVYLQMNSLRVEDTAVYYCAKGRAAGTFDEWGQGTLVTVSS,2.18,3/3
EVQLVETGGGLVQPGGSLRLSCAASGFTLNPYGISWVRQAPGKGPEWVSVIYSDGRRVRYGDSVKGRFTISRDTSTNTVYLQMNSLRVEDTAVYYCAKGRAAGTFDSWGQGTLVTVSS,2.78,3/3